The target of the test is Kappa-type opioid receptor (Homo sapiens, UniProt P41145). Briefly: Binding Assay: Kippa-Opioid Receptor Binding Assay Procedures: Membranes from recombinant HEK-293 cells expressing the human kippa opioid receptor (kippa) (cloned in house) were prepared by lysing cells in ice cold hypotonic buffer (2.5 mM MgCl2, 50 mM HEPES, pH 7.4) (10 mL/10 cm dish) followed by homogenization with a tissue grinder/Teflon pestle. Membranes were collected by centrifugation at 30,. The note with it: sf9.

pKi: −log10 of the molar value.

For `CC[C@H](C)[C@H](N)C(=O)NC[C@H]1C[C@@]23CC[C@]1(OC)[C@@H]1Oc4c(O)ccc5c4[C@@]12CCN(CC1CC1)[C@@H]3C5`, the pKi is 10.05.
With `CO[C@]12CC[C@@]3(C[C@@H]1CNC(=O)[C@@H](N)CO)[C@H]1Cc4ccc(O)c5c4[C@@]3(CCN1CC1CC1)[C@H]2O5`, the negative logarithm of the Ki (pKi) is 9.74.
The result for `CO[C@]12CC[C@@]3(C[C@@H]1CNC(=O)CNC(C)=O)[C@H]1Cc4ccc(O)c5c4[C@@]3(CCN1CC1CC1)[C@H]2O5` reads 9.66; that for `CO[C@]12CC[C@@]3(C[C@@H]1CNC(=O)[C@H](Cc1ccc(O)cc1)NC(C)=O)[C@H]1Cc4ccc(O)c5c4[C@@]3(CCN1CC1CC1)[C@H]2O5`, 9.89.
The result for `CO[C@]12CC[C@@]3(C[C@@H]1CNC(=O)[C@@H](N)CC(N)=O)[C@H]1Cc4ccc(O)c5c4[C@@]3(CCN1CC1CC1)[C@H]2O5` reads 10.05; that for `COC12CC[C@@]3(C[C@@H]1CNC(=O)CCCCC(=O)O)[C@H]1Cc4ccc(O)c5c4[C@@]3(CCN1CC1CC1)[C@H]2O5`, 7.87; that for `COC12CC[C@@]3(C[C@@H]1CNC(=O)c1nccnc1C(=O)O)[C@H]1Cc4ccc(O)c5c4[C@@]3(CCN1CC1CC1)[C@H]2O5`, 7.82.
For `COc1ccc2c3c1O[C@H]1[C@@]4(OC)CC[C@@]5(C[C@@H]4CNC(=O)[C@H](C)N)[C@@H](C2)N(CC2CC2)CC[C@]315` the value was 7.86; for `COC12CC[C@@]3(C[C@@H]1CNC(=O)c1nccnc1C(N)=O)[C@H]1Cc4ccc(O)c5c4[C@@]3(CCN1CC1CC1)[C@H]2O5`, 9.32.
Turning to `COC12CC[C@@]3(C[C@@H]1CNC(=O)CCC(N)=O)[C@H]1Cc4ccc(O)c5c4[C@@]3(CCN1CC1CC1)[C@H]2O5`, the pKi is 9.77.

As usually defined, the pKi is −log10 of the Ki, conventionally taken in molar units.

The values are drawn from ChEMBL document CHEMBL3639331, “Buprenorphine analogs” (2015).
